US8022239B2, “Mechanism-based inactivators of autotaxin” (The University of Memphis Research Foundation, priority 2008, dated 2011)

Biological target: T1, autotaxin (ATX) (Homo sapiens, UniProt Q13822)
T1 construct: concentrated conditioned serum-free medium (CCM) from MDA MB-435 cells as the source of ATX; endogenous in cells; host or cells: MDA-MB-435 cells (serum-free conditioned medium, concentrated ~10 fold)
Assay: Autotaxin inactivation analysis: ATX-mediated hydrolysis of FS-3 (fluorescence), concentrated conditioned medium from MDA MB-435 cells as ATX source
Type: biochemical
Details: FS-3 substrate
Description: The test protocol was as follows:
MDA-MB-435 cells were cultured at 37° C. and 5% CO2 in Dulbecco's Modified Eagle Medium (DMEM) (MediaTech, Herndon, Va.) containing 5% fetal bovine serum (Hyclone, Logan, Utah), 100 U/ml penicillin, 100 μg/ml streptomycin (Hyclone, Logan, Utah) and 292 μg/ml L-glutamine (Hyclone, Logan, Utah). Cells were grown to ˜80% confluence at which time the cells were washed twice with sterile phosphate buffered saline prior to the addition of serum free DMEM containing L-glutamine. Conditioned medium was collected after 24-30 hours, supplemented with 20% ethylene glycol and was clarified by centrifugation at 3000×g and 4° C. for 10 min. The media was concentrated ˜10 fold and buffer exchanged into Tris (50 mM, pH 7.4) containing 20% ethylene glycol using an Amicon 8050 cell fitted with a PM30 filter (MILLIPORE®, Billerica, Mass.). Aliquots of concentrated conditioned media were stored at 4° C. until needed.
ATX inhibition was assayed using FS-3 (Echelon Biosciences, Inc., Salt Lake City, Utah, USA) as a substrate and ˜10 times concentrated conditioned serum-free medium (CCM) from MDA MB-435 cells as the source of ATX. Assays were performed in 96-well plates with CCM comprising one-third of the total volume and final FS-3 and charcoal-stripped fatty acid free BSA concentrations of 1 and 30 μM in assay buffer (1 mM each CaCl2 and MgCl2, 5 mM KCl, 140 mM NaCl, 50 mM Tris pH 8.0). Fluorescence was read at 5 minute intervals by a Synergy2 system (BioTek, Winooski, Vt.) with excitation and emission wavelengths of 485 and 538 nm, respectively. […] Fluorescence readings were normalized to vehicle control after subtraction of fluorescence in the absence of CCM. Data are shown as the mean±S.D. of at least three wells.

Compound	Fluorescence (% Response) (30 uM, time 6 hours)	Fluorescence (% Response) (1 uM, time 0 hour)	Fluorescence (% Response) (1 uM, time 1 hour)	Fluorescence (% Response) (1 uM, time 3 hours)	Fluorescence (% Response) (1 uM, time 6 hours)
CCCCCCCCCCCCCCCCOP(=O)(O)Oc1ccc(C(F)F)cc1 [Example 3, (16:0)-p-difluorophosphodiester]	10.4%				
lysophosphatidic acid [LPA, reference compound]		15.6%	10.4%	1.0%	1.0%
